Reference: PMC3866371 (Neuropharmacology, 2013)

Chains of the proteins cited; added tags and fusions are not shown. Residues count along the entry.
UniProt P04757, 26-499: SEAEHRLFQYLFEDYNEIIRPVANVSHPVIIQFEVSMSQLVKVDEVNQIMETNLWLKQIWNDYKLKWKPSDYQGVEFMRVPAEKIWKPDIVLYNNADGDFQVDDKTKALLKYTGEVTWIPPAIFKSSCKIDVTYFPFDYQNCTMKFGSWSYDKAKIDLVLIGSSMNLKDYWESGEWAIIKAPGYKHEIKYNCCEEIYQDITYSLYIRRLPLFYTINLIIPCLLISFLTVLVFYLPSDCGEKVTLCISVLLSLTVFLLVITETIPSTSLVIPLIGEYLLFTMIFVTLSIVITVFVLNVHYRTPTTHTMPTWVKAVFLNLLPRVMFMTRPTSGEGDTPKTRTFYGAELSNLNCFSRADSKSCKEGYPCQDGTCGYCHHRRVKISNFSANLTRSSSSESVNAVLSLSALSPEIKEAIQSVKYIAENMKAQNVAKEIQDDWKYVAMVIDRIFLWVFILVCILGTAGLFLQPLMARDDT
UniProt P12392, 21-495: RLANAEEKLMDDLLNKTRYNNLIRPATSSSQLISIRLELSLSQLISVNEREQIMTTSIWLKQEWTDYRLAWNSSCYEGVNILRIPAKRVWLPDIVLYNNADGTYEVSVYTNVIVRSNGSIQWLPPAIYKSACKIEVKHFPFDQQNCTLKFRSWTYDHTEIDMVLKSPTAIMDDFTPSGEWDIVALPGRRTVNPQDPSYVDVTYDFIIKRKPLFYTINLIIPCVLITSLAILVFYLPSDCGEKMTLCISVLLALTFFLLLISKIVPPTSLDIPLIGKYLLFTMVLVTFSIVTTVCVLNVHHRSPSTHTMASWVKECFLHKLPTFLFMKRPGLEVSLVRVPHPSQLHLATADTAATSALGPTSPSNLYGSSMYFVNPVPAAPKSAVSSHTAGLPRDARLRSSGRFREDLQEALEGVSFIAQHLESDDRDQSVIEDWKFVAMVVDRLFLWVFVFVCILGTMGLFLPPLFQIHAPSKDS

Biological target: α3β4 nAChR (Rattus norvegicus, UniProt P04757+P12392)
Assay type: binding
Conditions: 16 h incubation

Clc1ccc(C2CC3CCC2N3)cn1 (stereo not shown) [[^3H]epibatidine]
Bmax of [^3H]epibatidine binding (in the presence of 0 AT-1012): 8.28 pmol/mg protein | Bmax of [^3H]epibatidine binding (in the presence of 5 nM AT-1012): 7.34 pmol/mg protein | Bmax of [^3H]epibatidine binding (in the presence of 15 nM AT-1012): 6.08 pmol/mg protein | Bmax of [^3H]epibatidine binding (in the presence of 50 nM AT-1012): 6.32 pmol/mg protein

Like-named read-outs stand apart in the source and are kept apart here.
